This is a selection; strong and weak results do not stand in their true shares. Activity calls are given as the source filed them. Cut-off read from the data, not from the text of the source: active = activation above about 50%; inconclusive = mostly about 30% to 49%; inactive = weaker than that.

The assay in a line: qHTS of IL-2 Activators. Note: 0% is about no effect. As to conditions: IL-2 activation reporter assay, cell-based qHTS; stronger effect = higher value; in transgenic mouse T cells; stimulated with anti-CD3/CD4/CD28 beads. In outline: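 Unstimulated transgenic mouse T cells; 60-min compound exposure; bead-based TCR/CD4/CD28 stimulation; 18 h culture, 37 degrees C; dual fluorescence (EGFP, DsRed) plate cytometry.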
In general terms: In qHTS, concentration-response curves come from the screen itself.
Turning to `CC(C)=N/N=C(\N)N[N+](=O)[O-]`, the activation is inactive: -0.634%. In the case of `CC(C)c1nc(Nc2ccccc2)n(P(=O)(N(C)C)N(C)C)n1` it was inactive: 1.38%; in that of `COc1ccc(C2=NCC(CBr)S2)cc1` (stereo not given), inactive: -1.39%; in that of `O=[N+]([O-])c1cc([N+](=O)[O-])c(CCNc2ccccc2)c([N+](=O)[O-])c1`, inactive: -0.319%. In the case of `CCc1nc2c(n1)c1c(non1O)c1c2no[n+]1[O-]` it was inactive: -0.648%; in that of `Cc1ccc(NP(=O)(Oc2ccccc2)Oc2ccccc2)nc1`, inactive: -1.68%; in that of `CC(=O)N1C2C3N(C(C)=O)C1C1N(C(C)=O)C(C(N1C(C)=O)N3C(C)=O)N2C(C)=O`, inactive: 0.0937%. In the case of `O=[N+]([O-])c1cccc2n[nH]nc12` it was inactive: -0.286%; in that of `O=P(Nc1nccs1)(c1ccccc1)c1ccccc1`, inactive: -0.494%; in that of `CC(C)C(=O)NC(Sc1ccccc1)C(Cl)(Cl)Cl` (stereo not given), inactive: -4.42%. On to `c1nnnn1CCn1cnnn1`, for which the activation was inactive: -0.755%. In the case of `O=[As](O)(c1ccccc1)c1ccc(O)cc1` it was inactive: -2.55%; in that of `CC(=O)NC(SC(=S)N(C)C)C(Cl)(Cl)Cl` (stereo not given), inactive: -0.469%; in that of `O=[N+]([O-])c1ncn(CCn2cnc([N+](=O)[O-])n2)n1`, inactive: -4.13%.

As to `O=[N+]([O-])c1ccc(O)c(/C=N/Nc2ccc([N+](=O)[O-])cc2[N+](=O)[O-])c1`, the activation is inactive: -1.08%.

Consider `O=C(OC1CN2CCC1CC2)c1cccc(Cl)c1` (stereo not given), for which the activation is inactive: -1.95%. For `Nc1ccc([As](=O)(O)c2ccc([N+](=O)[O-])cc2)cc1` the value was inactive: 1.28%; for `C(Cc1nn[nH]n1)Cc1nn[nH]n1`, inactive: 0.96%; for `CN(C)C1(CNC(=O)c2ccc(Cl)c(S(N)(=O)=O)c2)CCCCC1`, inactive: -3.18%. In the case of `O=P(Nc1ccccn1)(c1ccc(Br)cc1)c1ccc(Br)cc1` it was inactive: -1.8%. In the case of `Nc1ccc(CCCCOc2ccccc2)cc1` it was inactive: -0.107%; in that of `COc1ccc(N)c([N+](=O)[O-])c1[N+](=O)[O-]`, inactive: 0.996%. Turning to `C[C@H]1OP(=O)(Oc2ccccc2)[C@H](O)[C@H](O)[C@H]1N=[N+]=[N-]` (stereo not given in full), the activation is inactive: 0.206%.

Regarding `O=P(Nc1nc2ccccc2s1)(c1ccccc1)c1ccccc1`, the activation is inactive: 4.39%. For `CCC(=O)N1C2C3N(C(=O)CC)C1C1N(C(=O)CC)C(C(N1C(=O)CC)N3C(=O)CC)N2C(=O)CC` the value was inactive: -0.501%; for `O=C(OC1CN2CCC1CC2)c1ccccc1` (stereo not given), inactive: -3.95%. In the case of `CC(=O)NC(SC(=S)N(CC(C)C)CC(C)C)C(Cl)(Cl)Cl` (stereo not given) it was inactive: 1.2%; in that of `Cc1ccc(OP(=O)(Nc2ccccn2)Oc2ccc(C)cc2)cc1`, inactive: -0.71%; in that of `COC(=O)c1cc2c(s1)N=C(c1ccccc1)N(C)P2(=O)N1CCOCC1` (stereo not given), inactive: 0.0574%.

As to `CN(C)C(=O)Oc1noc2ccccc12`, the activation was inactive: 1.21%.

As to `O=c1c2cc([N+](=O)[O-])ccc2[nH]c2c([N+](=O)[O-])cc([N+](=O)[O-])cc12`, the activation was inactive: -0.746%. For `Cc1ccccc1OP(=O)(Nc1ccccn1)Oc1ccccc1C` the value was inactive: 0.339%. In the case of `CC(NC(=O)COC(=O)C(O)(c1ccccc1)c1ccccc1)c1ccccc1` (stereo not given) it was inactive: 0.462%; in that of `Cc1ccc(NP(=O)(Oc2cccc(C)c2)Oc2cccc(C)c2)nc1`, inactive: -0.422%. As to `c1ccc(-c2nn[nH]n2)c(-c2nn[nH]n2)c1`, the activation was inactive: -0.0633%. As to `O=C(NC1CCS(=O)(=O)C1)NP(=S)(Oc1ccccc1)Oc1ccccc1` (stereo not given), the activation is inactive: -1.2%.

`CCNC(=S)/N=C(\N)N[N+](=O)[O-]`: the activation was inactive: -1.2%. Consider `O=P1(N(CCCl)CCCl)OCCC2CCCCN21` (stereo not given), for which the activation is inactive: 1.19%. In the case of `C[C@@H]1C=CCP(=O)(Oc2ccccc2)O1` (stereo not given in full) it was inactive: -0.343%. In the case of `C[C@H]1OP(=O)(Oc2ccccc2)C[C@@H]2O[C@@H]21` (stereo not given in full) it was inactive: -0.316%; in that of `Cc1ccccc1CN(C)C(=O)COC(=O)C(O)(c1ccccc1)c1ccccc1`, inactive: -0.128%. In the case of `COC(=O)C1(C)COP(=O)(NCc2ccccc2)OC1` (stereo not given) it was inactive: -2.75%; in that of `N#C/C(=C\c1ccc(N(CCBr)CCBr)cc1)C(N)=O`, inactive: -6.17%; in that of `CC(=O)c1ccc(N2CC2c2ccncc2)cc1` (stereo not given), inactive: 0.302%. Turning to `CC(=O)Nc1ccc(Oc2c([N+](=O)[O-])cc([N+](=O)[O-])cc2[N+](=O)[O-])cc1`, the activation was inactive: -0.158%. For `CC(=O)Nc1ccc([As](=O)(O)O)c(O)c1` the value was inactive: 0.0314%. For `CCOc1ccc(C2=NCC(CBr)S2)cc1` (stereo not given) the value was inactive: -0.305%; for `O=P1(Nc2nc3ccc(Cl)cc3s2)COc2ccccc2O1` (stereo not given), inactive: -1.65%; for `CC(C)(C)C(=O)NC(Sc1ccccc1)C(Cl)(Cl)Cl` (stereo not given), inactive: 1.84%.

Regarding `CCc1cc(O)c([N+](=O)[O-])c(C)c1[N+](=O)[O-]`, the activation is inactive: -0.245%.

The values above are taken from PubChem BioAssay AID652025 (National Center for Advancing Translational Sciences (NCATS), 2013).
